# Laboratory results taken from ChEMBL document CHEMBL1201862, “PubChem BioAssay data set” (2004).
# Some of the results follow. For most assays here, no stated cut-off is given here; in the data, active = GI50 up to about 1.1 µM and inactive = higher. Only a part of the results of these assays is listed, not drawn at random.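 These data come from cells grown in 96-well plates and exposed to compound for 48 hours at five concentrations. GI50 is the concentration that inhibits growth by half.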 For some assays here: Entries with a potency or affinity are not part of this list.
# Columns and labels:
# Test in all cases: NCI tumour cell line growth inhibition, 48 h
# DU-145 = test system: DU-145
# EKVX = test system: EKVX
# HCT-116 = test system: HCT-116
# HCT-15 = test system: HCT-15
# HL-60 = test system: HL-60
# HOP-62 = test system: HOP-62
# HOP-92 = test system: HOP-92
# HCC 2998 = test system: HCC 2998
# HOP-18 = test system: HOP-18
# DMS-273 = test system: DMS-273
SMILES,GI50 (DU-145),GI50 (EKVX),GI50 (HCT-116),GI50 (HCT-15),GI50 (HL-60),GI50 (HOP-62),GI50 (HOP-92),GI50 (HCC 2998),GI50 (HOP-18),GI50 (DMS-273)
COc1ccc([N+](=O)[O-])c(C[N+](C)(CCCl)CCCl)c1,inactive: > 100 µM,inactive: > 100 µM,inactive: > 100 µM,inactive: > 100 µM,inactive: 70.3 µM,inactive: > 100 µM,inactive: > 100 µM,,,
CCCC[S+](N)(=O)CCC(N)P(=O)(O)O (configuration not stated),inactive: > 100 µM,,inactive: > 100 µM,inactive: > 100 µM,inactive: > 100 µM,inactive: > 100 µM,inactive: 92.3 µM,inactive: > 100 µM,,
Cc1[nH]c2c(C)c([N+](=O)[O-])c(C)c([N+](=O)[O-])c2c1[N+](=O)[O-],,inactive: 4.24 µM,inactive: 5.98 µM,inactive: 4.98 µM,inactive: 3.89 µM,inactive: 11.9 µM,,inactive: 4.19 µM,inactive: 2.39 µM,
Cc1ccc2ccc(C)c(C)c2c1.O=[N+]([O-])c1cc([N+](=O)[O-])c(O)c([N+](=O)[O-])c1O,inactive: > 100 µM,inactive: 42 µM,inactive: > 100 µM,inactive: > 100 µM,,inactive: > 100 µM,inactive: 67.8 µM,inactive: > 100 µM,,
C[S+](N)(=O)CCC(N)P(=O)(O)O (configuration not stated),inactive: > 100 µM,,inactive: > 100 µM,inactive: > 100 µM,inactive: > 100 µM,inactive: > 100 µM,inactive: > 100 µM,inactive: > 100 µM,,
O=C1Nc2ccc([N+](=O)[O-])cc2/C1=N/Nc1ccc([N+](=O)[O-])cc1[N+](=O)[O-],,inactive: 37.6 µM,,inactive: 23.7 µM,,inactive: 18.2 µM,inactive: 19.3 µM,inactive: 10 µM,,inactive: 18 µM
ClCCSc1c2ccccc2nc2ccccc12,inactive: 3.84 µM,inactive: 14.8 µM,inactive: 5.16 µM,inactive: 8.67 µM,inactive: 4.11 µM,inactive: 20.2 µM,inactive: 4.39 µM,inactive: 20.8 µM,,
Cc1ccc([N+](=O)[O-])c(C[N+](C)(CCCl)CCCl)c1,inactive: 6.67 µM,inactive: 22.3 µM,inactive: 20.9 µM,inactive: 13.7 µM,inactive: 17.2 µM,inactive: 17.7 µM,inactive: 20 µM,,,
Cc1ccc2ccc3ccc4ccccc4c3c2c1.O=C1c2cc([N+](=O)[O-])ccc2-c2c1cc([N+](=O)[O-])cc2[N+](=O)[O-],active: 1.09 µM,inactive: 8.02 µM,active: 1.04 µM,active: 0.871 µM,active: 1.06 µM,inactive: 6.03 µM,inactive: 10.8 µM,active: 1.03 µM,,
Cn1c(=O)c([N+](=O)[O-])c(N=[N+]=[N-])c2ccccc21,,,,,,,inactive: 1.91 µM,,,
COc1ccc2nccc(C=O)c2c1,inactive: 1.79 µM,inactive: 36.6 µM,active: 0.083 µM,active: 0.199 µM,active: 0.222 µM,inactive: 9.75 µM,active: 0.817 µM,active: 0.65 µM,,
O[C@H]1[C@@H](O)CC2CCN3Cc4cc5c(cc4[C@H]1C23)OCO5 (some centres not stated),,inactive: > 100 µM,inactive: > 100 µM,inactive: > 100 µM,inactive: > 100 µM,inactive: > 100 µM,,inactive: > 100 µM,,inactive: > 100 µM
O=[As](O)(O)O,inactive: > 100 µM,inactive: > 100 µM,inactive: > 100 µM,inactive: > 100 µM,inactive: > 100 µM,inactive: > 100 µM,inactive: > 100 µM,inactive: > 100 µM,,
O=C1CCN2CCCC12 (configuration not stated),inactive: > 100 µM,inactive: > 100 µM,inactive: > 100 µM,inactive: > 100 µM,inactive: > 100 µM,inactive: > 100 µM,inactive: 37.3 µM,inactive: > 100 µM,,
NNc1nc2nonc2nc1NN,inactive: 32.7 µM,inactive: 20.9 µM,inactive: 28.8 µM,inactive: 33.3 µM,inactive: 51.8 µM,inactive: 78 µM,inactive: 55 µM,inactive: 52.8 µM,,
O=[N+]([O-])c1ncn(F)c1[N+](=O)[O-],inactive: > 100 µM,inactive: > 100 µM,inactive: > 100 µM,inactive: 41.7 µM,inactive: 22 µM,,inactive: > 100 µM,inactive: 10 µM,,
COP(C)(=O)C(N)Cc1ccccc1 (configuration not stated),inactive: > 100 µM,inactive: > 100 µM,inactive: > 100 µM,inactive: > 100 µM,inactive: > 100 µM,inactive: > 100 µM,inactive: > 100 µM,,,
O=[N+]([O-])C1([N+](=O)[O-])COCOC1,inactive: > 100 µM,inactive: > 100 µM,inactive: > 100 µM,inactive: 28.8 µM,inactive: 38.3 µM,inactive: > 100 µM,inactive: 17.6 µM,inactive: > 100 µM,,
O[C@@H]1CCN2CCC[C@H]12,inactive: > 100 µM,inactive: > 100 µM,inactive: > 100 µM,inactive: > 100 µM,inactive: > 100 µM,inactive: > 100 µM,inactive: > 100 µM,inactive: > 100 µM,,
Nc1nc2c(ncn2CCN(CCCl)CCCl)c(=O)[nH]1,,inactive: > 100 µM,inactive: > 100 µM,inactive: > 100 µM,inactive: > 100 µM,inactive: > 100 µM,inactive: > 100 µM,inactive: > 100 µM,inactive: > 100 µM,inactive: > 100 µM
CC1=CC2OC3CC(OC(=O)/C=C/C=C/C(OCCC4=CC(=O)OC4)C(C)O)C(C)(C2(CO)CC1)C31CO1 (configuration not stated),,,,,inactive: 1.98 µM,,,,,
COc1ccc(C[N+](C)(CCCl)CCCl)c([N+](=O)[O-])c1,inactive: > 100 µM,inactive: > 100 µM,inactive: > 100 µM,inactive: > 100 µM,inactive: 78.7 µM,inactive: > 100 µM,inactive: > 100 µM,,,
CCCCCCCCCCCCCNCC(C)O (configuration not stated),inactive: 15.3 µM,inactive: 10.2 µM,inactive: 13.5 µM,inactive: 12.8 µM,inactive: 17.4 µM,inactive: 22.8 µM,inactive: 2.52 µM,inactive: 3.05 µM,,
O=[N+]([O-])C1([N+](=O)[O-])CCCc2nonc21,inactive: > 100 µM,inactive: > 100 µM,inactive: 30.5 µM,inactive: 28.8 µM,inactive: 5.14 µM,inactive: 43.4 µM,inactive: 44.2 µM,inactive: 43.1 µM,,
